# This is a selection; strong and weak results do not stand in their true shares. The source made the active and inactive calls. Rule as the data show it: active = inhibition above about 13%; inactive = the rest.
# By UniProt entry, the sequences of proteins in these tests, tags left out.
# UniProt Q9UBB5, whole entry, looked up: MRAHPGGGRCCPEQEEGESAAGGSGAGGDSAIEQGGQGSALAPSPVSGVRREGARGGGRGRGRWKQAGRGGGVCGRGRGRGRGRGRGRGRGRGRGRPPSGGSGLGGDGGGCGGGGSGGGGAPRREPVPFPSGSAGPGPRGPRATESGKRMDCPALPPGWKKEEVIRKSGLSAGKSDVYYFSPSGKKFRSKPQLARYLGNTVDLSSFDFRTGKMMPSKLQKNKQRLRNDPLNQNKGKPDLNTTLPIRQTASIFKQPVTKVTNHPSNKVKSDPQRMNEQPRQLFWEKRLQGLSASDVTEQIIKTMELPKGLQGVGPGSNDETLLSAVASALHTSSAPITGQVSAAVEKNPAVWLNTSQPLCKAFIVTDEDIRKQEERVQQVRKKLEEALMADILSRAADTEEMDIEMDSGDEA
# Biological target: Methyl-CpG-binding domain protein 2 (Homo sapiens) (UniProt Q9UBB5)
# Experiment: inhibitors of MBD2 binding to methylated DNA, primary screen, biochemical, TR-FRET, DNA-binding domain, human (AID 686964)
# Details: MBD2 binding to methylated oligonucleotide, at 4.4 µM, stronger effect = higher value
row,Compound,inhibition
1,Cc1ccc(NP(=O)(Oc2cccc(C)c2)Oc2cccc(C)c2)nc1,inactive: 3.68%
2,c1ccc(-c2nn[nH]n2)c(-c2nn[nH]n2)c1,inactive: -2.03%
3,O=C(NC1CCS(=O)(=O)C1)NP(=S)(Oc1ccccc1)Oc1ccccc1 (stereo unspecified),inactive: 7.25%
4,CCNC(=S)/N=C(\N)N[N+](=O)[O-],inactive: 2.1%
5,O=P1(N(CCCl)CCCl)OCCC2CCCCN21 (stereo unspecified),inactive: -1.41%
6,CCC(=O)N1C2C3N(C(=O)CC)C1C1N(C(=O)CC)C(C(N1C(=O)CC)N3C(=O)CC)N2C(=O)CC,inactive: 1.26%
7,O=C(OC1CN2CCC1CC2)c1ccccc1 (stereo unspecified),inactive: 4.51%
8,Cc1ccc(OP(=O)(Nc2ccccn2)Oc2ccc(C)cc2)cc1,inactive: -0.06%
9,CC(=O)NC(SC(=S)N(CC(C)C)CC(C)C)C(Cl)(Cl)Cl (stereo unspecified),inactive: -2.18%
10,COC(=O)c1cc2c(s1)N=C(c1ccccc1)N(C)P2(=O)N1CCOCC1 (stereo unspecified),inactive: -4.57%
11,CN(C)C(=O)Oc1noc2ccccc12,inactive: 2.37%
12,O=c1c2cc([N+](=O)[O-])ccc2[nH]c2c([N+](=O)[O-])cc([N+](=O)[O-])cc12,inactive: 2.09%
13,Cc1ccccc1OP(=O)(Nc1ccccn1)Oc1ccccc1C,inactive: 0.65%
14,CC(NC(=O)COC(=O)C(O)(c1ccccc1)c1ccccc1)c1ccccc1 (stereo unspecified),inactive: 1.28%
15,CCOc1ccc(C2=NCC(CBr)S2)cc1 (stereo unspecified),inactive: 0.46%
16,O=P1(Nc2nc3ccc(Cl)cc3s2)COc2ccccc2O1 (stereo unspecified),inactive: -4.63%
17,CC(C)(C)C(=O)NC(Sc1ccccc1)C(Cl)(Cl)Cl (stereo unspecified),inactive: 5.44%
18,CCc1cc(O)c([N+](=O)[O-])c(C)c1[N+](=O)[O-],inactive: -0.91%
19,C[C@@H]1C=CCP(=O)(Oc2ccccc2)O1 (stereo partly specified),inactive: -1.74%
20,C[C@H]1OP(=O)(Oc2ccccc2)C[C@@H]2O[C@@H]21 (stereo partly specified),inactive: 1.74%
21,Cc1ccccc1CN(C)C(=O)COC(=O)C(O)(c1ccccc1)c1ccccc1,inactive: 5.42%
22,COC(=O)C1(C)COP(=O)(NCc2ccccc2)OC1 (stereo unspecified),inactive: 0.51%
23,N#C/C(=C\c1ccc(N(CCBr)CCBr)cc1)C(N)=O,inactive: -5.66%
24,CC(=O)c1ccc(N2CC2c2ccncc2)cc1 (stereo unspecified),inactive: -0.64%
25,CC(=O)Nc1ccc(Oc2c([N+](=O)[O-])cc([N+](=O)[O-])cc2[N+](=O)[O-])cc1,inactive: -8.58%
26,CC(=O)Nc1ccc([As](=O)(O)O)c(O)c1,inactive: 0.52%

row,Compound,inhibition
1,O=P(Nc1nccs1)(c1ccccc1)c1ccccc1,inactive: 1.97%
2,CC(C)C(=O)NC(Sc1ccccc1)C(Cl)(Cl)Cl (stereo unspecified),inactive: -4.28%
3,c1nnnn1CCn1cnnn1,inactive: 3.06%
4,CN(C)C1(CNC(=O)c2ccc(Cl)c(S(N)(=O)=O)c2)CCCCC1,inactive: 1.09%
5,O=P(Nc1ccccn1)(c1ccc(Br)cc1)c1ccc(Br)cc1,inactive: 1.16%
6,Nc1ccc(CCCCOc2ccccc2)cc1,inactive: -0.7%
7,COc1ccc(N)c([N+](=O)[O-])c1[N+](=O)[O-],inactive: -22.2%
8,C[C@H]1OP(=O)(Oc2ccccc2)[C@H](O)[C@H](O)[C@H]1N=[N+]=[N-] (stereo partly specified),inactive: 1.4%
9,O=P(Nc1nc2ccccc2s1)(c1ccccc1)c1ccccc1,inactive: 0.44%
10,O=[As](O)(c1ccccc1)c1ccc(O)cc1,inactive: -0.69%
11,O=[N+]([O-])c1ncn(CCn2cnc([N+](=O)[O-])n2)n1,inactive: 0.56%
12,CC(=O)NC(SC(=S)N(C)C)C(Cl)(Cl)Cl (stereo unspecified),inactive: 0.19%
13,O=C(OC1CN2CCC1CC2)c1cccc(Cl)c1 (stereo unspecified),inactive: -1.64%
14,Nc1ccc([As](=O)(O)c2ccc([N+](=O)[O-])cc2)cc1,inactive: 3.42%
15,C(Cc1nn[nH]n1)Cc1nn[nH]n1,inactive: 0.03%
16,C/C(N)=N\P(=O)(OCc1ccccc1)OCc1ccccc1,inactive: -7.63%
17,O=P1(N(CCCl)CCCl)OCCCS1 (stereo unspecified),inactive: 2.42%
18,O=C(Nc1cc([As](=O)(O)O)ccc1O)c1ccccc1,inactive: -4.66%
19,O=[N+]([O-])c1ncn(CCn2ncnc2[N+](=O)[O-])n1,inactive: -1.81%
20,CC(C)(C)C(=O)NC(Sc1ccncn1)C(Cl)(Cl)Cl (stereo unspecified),inactive: 1.47%
21,O=C(O)CNc1ccc([As](=O)(O)O)cc1,inactive: 1.52%
22,O=[N+]([O-])c1cccc(NC2=NCC(CBr)S2)c1 (stereo unspecified),inactive: 8.84%
23,COC(=O)C1(C)COP(=O)(Nc2ccccc2)OC1 (stereo unspecified),inactive: 1.78%
24,COc1ccc(C2=NCC(CBr)S2)cc1 (stereo unspecified),inactive: -2.54%
25,O=[N+]([O-])c1cc([N+](=O)[O-])c(CCNc2ccccc2)c([N+](=O)[O-])c1,inactive: -1.87%
26,CCc1nc2c(n1)c1c(non1O)c1c2no[n+]1[O-],inactive: -14%

row,Compound,inhibition
1,Cc1ccc(NP(=O)(Oc2ccccc2)Oc2ccccc2)nc1,inactive: -0.85%
2,CC(=O)N1C2C3N(C(C)=O)C1C1N(C(C)=O)C(C(N1C(C)=O)N3C(C)=O)N2C(C)=O,inactive: -0.67%
3,O=[N+]([O-])c1cccc2n[nH]nc12,inactive: -1.52%
4,CCN(/C(=N/P(=O)(N1CCOCC1)N1CCOCC1)N1CCOCC1)c1ccc(OC)cc1,inactive: 1.74%
5,C[N+]1=C2C=CC=CC=C2SC12C([N+](=O)[O-])=CC([N+](=O)[O-])=C[C-]2[N+](=O)[O-] (stereo unspecified),inactive: -1.82%
6,Nc1ccc([As](=O)(O)c2ccc(N)cc2)cc1,inactive: -3.99%
7,c1cc(-c2nn[nH]n2)ccc1-c1nn[nH]n1,inactive: 2.04%
8,CC1CCN(C(=O)Oc2c(Cl)cc(Cl)c3cccnc23)CC1,inactive: -0.55%
9,CN(C)C(=O)OCCc1n(C)cc[n+]1C,inactive: -3.15%
10,CC(C)=N/N=C(\N)N[N+](=O)[O-],inactive: 0.07%
11,CC(C)c1nc(Nc2ccccc2)n(P(=O)(N(C)C)N(C)C)n1,inactive: -7.63%
12,Cc1ccc(N/C(=N/P(=O)(N2CCOCC2)N2CCOCC2)N2CCOCC2)cc1,inactive: -2.34%
13,CN(C(=O)Cc1ccc(Cl)c(Cl)c1)[C@H]1CCCC[C@H]1N1CCCC1,inactive: -1.77%
14,NC(=O)c1cc([N+](=O)[O-])cc([N+](=O)[O-])c1N,inactive: -5.92%
15,Clc1ccc(Cl)c(NC2=NCC(CBr)S2)c1 (stereo unspecified),inactive: 2.4%
16,CN1CCCC(OC(=O)C(c2ccccc2)c2ccccc2)C1 (stereo unspecified),inactive: -6.3%
17,Cc1ccc(OP(=O)(Nc2nccs2)Oc2ccc(C)cc2)cc1,inactive: 4.91%
18,COc1ccccc1OP(=O)(Nc1ccc(C)cn1)Oc1ccccc1OC,inactive: 3.29%
19,O=C(NC(Sc1ccncn1)C(Cl)(Cl)Cl)c1ccccc1 (stereo unspecified),inactive: -0.42%
20,Oc1ccccc1CNc1ccccn1,inactive: 3.07%
21,CC(C)CC(=O)NC(Sc1ccc(Cl)cc1)C(Cl)(Cl)Cl (stereo unspecified),inactive: 4.52%
22,Nc1cc(N)c2nonc2c1[N+](=O)[O-],inactive: -12.1%
23,CN(C)P(=O)(N(C)C)n1c(Nc2ccccc2)nnc1-c1ccccc1,inactive: -1.84%
24,O=P(Nc1nc2ccc(Cl)cc2s1)(c1ccccc1)c1ccccc1,inactive: -1.35%
25,CCCC1OP(N)(=O)OCC1CC (stereo unspecified),inactive: -3.24%
26,O=C(O)c1ccccc1[As](=O)(O)O,inactive: -2.81%

row,Compound,inhibition
1,CC(=O)Nc1ccc([As](=O)(O)O)cc1,inactive: 4.88%
2,CCn1c(=O)n(C2CCN(CC3CCCCCCC3)C[C@H]2CO)c2ccccc21 (stereo partly specified),inactive: -0.69%
3,CN(C(=O)Cc1ccc(Cl)c(Cl)c1)[C@H]1CCCC[C@@H]1N1CCCC1,inactive: 0.75%
4,Cc1ccc(NP(=O)(Oc2ccccc2F)Oc2ccccc2F)nc1,inactive: 1.34%
5,CCOP(=O)(Nc1ccccc1)OCC,inactive: -6.04%
6,Cc1cc(SC(NC(=O)c2ccc(F)cc2)C(Cl)(Cl)Cl)ncn1 (stereo unspecified),inactive: -5.57%
7,Nc1cccc2ccc([As](=O)(O)O)cc12,inactive: -0.65%
8,CCN(N=Nc1nonc1N)c1nonc1N,inactive: -5.34%
9,CN(C(=O)Cc1ccccc1)C1CC[C@@]2(CCCO2)C[C@@H]1N1CCCC1 (stereo partly specified),inactive: -6.1%
10,COc1cc(C(=O)NCC2(N3CCOCC3)CCCCC2)ccc1OCC(C)C,inactive: -0.33%
11,O=[N+]([O-])c1ccc(-c2cc([N+](=O)[O-])c(O)c([N+](=O)[O-])c2)cc1,inactive: -17.8%
12,C[As](=O)(O)c1cccc(C(=O)O)c1,inactive: 1.18%
13,O=[As](O)(c1ccc(O)cc1)c1ccccc1O,inactive: -0.34%
14,Cc1ccc(OP(=O)(Nc2ccc([N+](=O)[O-])cn2)Oc2ccc(C)cc2)cc1,inactive: -0.28%
15,[N-]=[N+]=NC1CCCCC1NC(=O)c1cc([N+](=O)[O-])cc([N+](=O)[O-])c1 (stereo unspecified),inactive: 3.95%
16,Cc1ccc2nc3c(c(C)c2c1)CC(C(Cl)Cl)S3 (stereo unspecified),inactive: -1.17%
17,ClCCSc1nnc(-c2cccnc2)o1,inactive: 0.77%
18,CC(C)c1ccc(OP(=O)(Nc2ccccn2)Oc2ccccc2F)cc1 (stereo unspecified),inactive: -0.86%
19,COC(=O)C1(C)COP(=O)(N2CCCCCC2)OC1 (stereo unspecified),inactive: 0.79%
20,O=C(OC1CN2CCC1CC2)c1cccc2[nH]cnc12 (stereo unspecified),inactive: 6.62%
21,CCN(CC)C(=S)SC(NC=O)C(Cl)(Cl)Cl (stereo unspecified),inactive: 1.28%
22,CC(C)NC(=O)NP(=O)(Oc1ccccc1)Oc1ccccc1,inactive: -4.09%
23,Cc1c2c(nc3ccccc13)SC(C(Cl)Cl)C2 (stereo unspecified),inactive: 0.49%
